Experimental data: patent US20040049009A1, “Methods for improving the antagonistic/agonistic properties of peptidic antagonists/agonists of the corticotropin-releasing factor receptor (crfr)” (priority 2000, published 2004)

T1: rat CRF binding protein C-terminally fused with a His6 sequence (rat) (UniProt P24388)
T1 sequence: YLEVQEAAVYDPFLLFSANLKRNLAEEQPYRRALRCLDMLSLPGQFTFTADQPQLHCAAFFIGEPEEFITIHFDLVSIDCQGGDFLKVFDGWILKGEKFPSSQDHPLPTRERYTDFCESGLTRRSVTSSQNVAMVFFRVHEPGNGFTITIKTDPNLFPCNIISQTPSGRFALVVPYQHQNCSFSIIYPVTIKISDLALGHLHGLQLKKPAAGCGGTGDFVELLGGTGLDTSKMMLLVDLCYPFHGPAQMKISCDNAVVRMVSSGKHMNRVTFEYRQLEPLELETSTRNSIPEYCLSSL

B1: ovine corticotropin-releasing factor (ligand, UniProt P01142 148-188, looked up)
Corticoliberin: SQEPPISLDLTFHLLREVLEMTKADQLAQQAHSNRKLLDIA
modifications: Corticoliberin
B2: human/rat corticotropin-releasing factor (ligand)
peptide: SEEPPISLDLTFHLLREVLEMARAEQLAQQAHSNRKLMEII

Tests used:
[1] = biological target: T1, rat CRF binding protein C-terminally fused with a His6 sequence (rat); experiment: SPA competition with 0.1 nM [125I-Tyr0]h/rCRF, His-tagged rCRFBP; 95% CI (420-530)
[2] = biological target: T1, rat CRF binding protein C-terminally fused with a His6 sequence (rat); experiment: SPA competition with 0.1 nM [125I-Tyr0]h/rCRF, His-tagged rCRFBP; 95% CI (0.38-0.71)
[3] = biological target: mouse CRF receptor, type 2β (mouse) (UniProt Q60748); experiment: SPA competition with 0.05 nM [125I-Tyr0]Svg, HEK-293 membranes; 95% CI (25-59)

Binder	IC50 [1] [nM]	IC50 [2] [nM]	IC50 [3] [nM]
B1	470	–	–
B2	–	0.54	42
